ChEMBL document CHEMBL2016464, “Identification of Inhibitors of NOD1-Induced Nuclear Factor-κB Activation” (ACS Med Chem Lett, 2011)

The chains behind the UniProt entries cited, without tags or fusion partners.
UniProt Q9HC29, whole entry: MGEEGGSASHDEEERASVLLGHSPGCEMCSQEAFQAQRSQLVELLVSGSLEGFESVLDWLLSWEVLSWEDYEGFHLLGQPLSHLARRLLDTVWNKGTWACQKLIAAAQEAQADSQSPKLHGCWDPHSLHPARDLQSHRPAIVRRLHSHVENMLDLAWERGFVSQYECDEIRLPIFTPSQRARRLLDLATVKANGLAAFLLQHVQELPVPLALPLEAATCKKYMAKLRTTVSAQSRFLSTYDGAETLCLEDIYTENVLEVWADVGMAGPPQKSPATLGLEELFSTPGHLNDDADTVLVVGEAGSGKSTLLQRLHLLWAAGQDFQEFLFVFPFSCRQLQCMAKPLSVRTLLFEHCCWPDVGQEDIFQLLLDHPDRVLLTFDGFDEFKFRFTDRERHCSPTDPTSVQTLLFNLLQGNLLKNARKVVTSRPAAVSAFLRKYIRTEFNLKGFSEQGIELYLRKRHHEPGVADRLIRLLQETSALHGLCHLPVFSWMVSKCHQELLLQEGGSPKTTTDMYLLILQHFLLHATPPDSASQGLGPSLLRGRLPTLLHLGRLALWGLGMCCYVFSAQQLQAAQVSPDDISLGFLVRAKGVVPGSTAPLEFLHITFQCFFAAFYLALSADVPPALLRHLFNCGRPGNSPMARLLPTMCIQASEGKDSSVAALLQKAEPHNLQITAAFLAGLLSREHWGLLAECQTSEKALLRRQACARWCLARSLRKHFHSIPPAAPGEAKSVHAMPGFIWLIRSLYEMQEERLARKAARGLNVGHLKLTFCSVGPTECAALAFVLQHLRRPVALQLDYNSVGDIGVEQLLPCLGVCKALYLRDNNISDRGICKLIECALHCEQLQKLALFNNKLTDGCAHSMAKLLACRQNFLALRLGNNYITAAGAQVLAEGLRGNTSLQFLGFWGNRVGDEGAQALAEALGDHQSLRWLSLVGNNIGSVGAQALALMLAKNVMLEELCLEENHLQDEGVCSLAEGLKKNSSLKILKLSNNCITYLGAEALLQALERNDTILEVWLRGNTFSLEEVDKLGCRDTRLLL

Molecular target: Nucleotide-binding oligomerization domain-containing protein 2 (Homo sapiens, UniProt Q9HC29)

**Q.** `Nc1nc2ccccc2n1C(=O)c1ccc(Cl)cc1Cl` was tested. Which IC50 did it give?
**A.** The IC50 was 3.8 µM.
